Experimental data from patent US20240299568A1, “BONE-SPECIFIC DELIVERY OF POLYPEPTIDES” (William Marsh Rice University, priority 2021, published 2024).

Key:
[1] = Binding to bone cryosections; design: species or system C57BL/6 mice; conditions: 50 μg/mL overnight at 4° C.; xylenol orange counterstain
Method: Enhanced Targeting of the Bone Metastatic Niche by Tras-ALN in vitro and in vivo. Next, the ability of the Tras-ALN conjugate to target bone tissue was explored. […] Before imaging via confocal laser scanning microscopy, these bone sections were further stained for 30 min with 4 μg/mL xylenol orange (XO, known to label bone). […] Furthermore, localization of the Tras-ALN signal correlated well with the XO signal, confirming the specific targeting of bone by Tras-ALN.
Binding to bone cryosections. […] After washing 3 times with PBS, specimens were incubated for 30 min at 37° C. with Xylenol Orange (XO) (stock: 2 mg/ml, dilute 1:500, dilute buffer: PBS pH 6.5). After three washes with PBS, specimens were stained with Hoechst 33342 (stock 10 mg/ml, dilute 1:2000) for 10 min. Slides were then washed with PBS, air dried, and sealed with Prolong™ gold anti-fade mountant (from ThermoFisher).

MDA-MB-468 cells = test: In vitro cytotoxicity (MTT); type: cell-based; conditions: MDA-MB-468 (Her2 0), 4 d
Method: SK-BR-3, BT474, and MDA-MB-468 cells were seeded in 200 μL of culture medium into 96-well plates at a density of 2×10^3 cells/well and incubated overnight to allow attachment. […] 20 μL of MTT solution (5 mg/mL) was then added to each well and incubated for another 4 h. Medium was aspirated and 150 μL DMSO was added to each well. The absorbance at 570 nm was measured by microplate reader (Infinite M Plex by Tecan) to quantify living cells.

[2] = mouse, 1 mg/kg
[3] = single dose 1 mg/kg retro-orbital; serum for 7 days
[4] = system: MCF-7 (HER2-, ER+) cancer cells; test: MCF-7 HER2-negative bone micrometastasis model (IIA injection); conditions: ex vivo at day 68; 1 mg/kg
[5] = Native bone binding assay; design: species or system mice; conditions: did not change significantly with longer incubation
HA binding assay = conditions: did not change significantly with longer incubation

| Substance | FITC signal (anti-human IgG) on non-decalcified bone sections [1] | IC50 (MDA-MB-468 cells) | FITC (anti-human IgG) signal in bone sections after in vivo dosing [2] | serum concentration over time, Tras versus Tras-ALN [3] | metastatic cells observed, liver [4] | metastatic cells observed, lung [4] | metastatic cells observed, right hind limb [4] | binding to native bone [5] | binding to HA (HA binding assay) |
| --- | --- | --- | --- | --- | --- | --- | --- | --- | --- |
| Tras-ALN: trastuzumab site-specifically coupled by pClick (azide moiety reacted with BCN-functionalized ALN) to the bisphosphonate Alendronate | FITC signal was observed | >500 µg/mL | FITC signals were only observed in sections from the right leg harboring MDA-MB-361 tumors | – | – | – | – | – | – |
| trastuzumab | not in sections stained with unmodified Tras | >500 µg/mL | – | did not show significant differences | 33.4% | 83.4% | 83.4% | only slight binding | only slight binding |
